This passage reports k on results from ChEMBL document CHEMBL1151566, “Cephem sulfones as inactivators of human leukocyte elastase. II. Keto-enol tautomerish in cephem-4-ketones” (Bioorg Med Chem Lett, 1992).

The target in test [1] is T1, Neutrophil elastase (Homo sapiens) (UniProt P08246).
T1 sequence (whole entry): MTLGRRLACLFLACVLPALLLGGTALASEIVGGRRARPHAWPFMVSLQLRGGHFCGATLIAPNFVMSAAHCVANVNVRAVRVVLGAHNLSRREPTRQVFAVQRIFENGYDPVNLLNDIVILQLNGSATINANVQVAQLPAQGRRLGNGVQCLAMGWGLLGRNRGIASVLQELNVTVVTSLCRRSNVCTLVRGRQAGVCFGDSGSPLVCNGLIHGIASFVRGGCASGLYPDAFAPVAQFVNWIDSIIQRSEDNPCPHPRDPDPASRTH
Put plainly: Inhibitory activity against human leukocyte elastase-II (HLE-II) expressed as second order inhibition rate constant.

Test [2] addresses T1, Neutrophil elastase (Homo sapiens). Description: Inhibition of human leukocyte elastase II (HLE-II) as second order rate constant.

As for `CO[C@H]1C(=O)N2C(C(=O)c3ccccc3)=C(CSc3nnnn3C)C(Sc3nnnn3C)S(=O)(=O)[C@H]12` (some centres undefined), the k on in test [1] turned out to be 2200 M⁻¹ s⁻¹.
In turn, `CO[C@H]1C(=O)N2C(C(=O)C(C)(C)C)=C(CSc3nnnn3C)C(Sc3nnnn3C)S(=O)(=O)[C@H]12` (some centres undefined) yielded a k on in test [2] of 26000 M⁻¹ s⁻¹.
On the same count and under the same terms, with `CO[C@H]1C(=O)N2C(C(=O)c3ccccc3)=C(CSc3nnnn3C)CS(=O)(=O)[C@H]12` the figure was 18000 M⁻¹ s⁻¹; with `CO[C@H]1C(=O)N2C(C(=O)C(C)(C)C)=C(CSc3nnnn3C)CS(=O)(=O)[C@H]12`, 19000 M⁻¹ s⁻¹.
